{"source": "patent US6784186B1", "about": "(priority 1998, dated 2004)", "key": {"[1]": {"experiment": "Rat inflamed paw test of Randall and Selitto"}, "[2]": {"experiment": "Mouse analgesia test of Hendershot and Forsaith"}, "[3]": {"settings": "low subcutaneous or intraperitoneal doses, 10-300 μg/kg"}}, "data": [{"substance": "N-methylnalorphninium iodide", "values": [{"measurement": "analgesic activity", "setting": "[1]; [3]", "result": "showed analgesic activity"}, {"measurement": "analgesic activity", "setting": "[2]; [3]", "result": "showed analgesic activity"}]}, {"substance": "S-methyllisothiocarbamoyl norheroin iodide", "values": [{"measurement": "analgesic activity", "setting": "[1]; doses of 1-3 mg/kg", "result": "active"}, {"measurement": "analgesic activity", "setting": "[2]; doses of 1-3 mg/kg", "result": "active"}]}, {"substance": "N-allylmorphinium iodide", "values": [{"measurement": "analgesic activity", "setting": "[1]; doses of 10 mg/kg", "result": "inactive"}, {"measurement": "analgesic activity", "setting": "[2]; doses of 10 mg/kg", "result": "inactive"}]}]}
